Reference: PMC7982521, “Studies on the Changes of Pharmacokinetics Behaviors of Phytochemicals and the Influence on Endogenous Metabolites After the Combination of Radix Bupleuri and Radix Paeoniae Alba Based on Multi-Component Pharmacokinetics and Metabolomics” (Frontiers in Pharmacology, 2021)

Assay: Multi-component pharmacokinetics in rat plasma after oral administration of RB, RPA or RB-RPA extracts (UPLC-HRMS, non-compartmental analysis)
Assay type: in vivo, Sprague-Dawley rats
Conditions: oral RB-RPA mixed extracts (45 g-herb/kg RB + 45 g-herb/kg RPA), mean ± SD, n = 7
Protocol: (Beijing, China, No. SCXK2018-0011). […] All rats were free to access the water and food until 12 h before the experiment. The animal study was reviewed and approved by the Experimental Animal Ethical Committee of Modern Research Center for Traditional Chinese Medicine, Shanxi University (animal ethic approval number: SXULL2018018), and all experimental procedures were carried out in accordance with the NIH Guide for the Care and Use of Laboratory Animals. […] So, we applied the method of switching ion modes in the detection process to quantify all analytes better. Glycyrrhizin was selected as the internal standard because it could be detected in both positive and negative ion modes. UPLC/MS/MS calibration and quantitation data were processed with Xcalibur workstation (Thermo-Fisher Scientific Inc., Waltham, MA, United States). […] For the other 30 components without standard reference, their concentrations were analyzed following the regression equations of homologous compounds ([Qiao et al., 2012]): paeoniflorin for P1 and M1 to M3; methylgallate for M4 to M10; saikosaponin […] and […]; saikosaponin […]; saikosaponin […]; saikosaponin B2 for P11 and M25 to […].

With `C[C@H]1O[C@@H](O[C@H]2CC[C@@]3(C)[C@@H](CC[C@]4(C)[C@@H]3C=C[C@]35OC[C@@]6(CCC(C)(C)C[C@H]63)[C@H](O)C[C@]54C)[C@]2(C)CO)[C@H](O)[C@@H](O[C@@H]2O[C@H](CO)[C@@H](O)[C@H](O)[C@H]2O)[C@H]1O` [Saikosaponin D] the Cmax was 26.57 ± 6.99 ng/mL.
